# Assay: Total, ferrous and ferric iron content of the complexes immediately after preparation (1,10-phenanthroline)
# Conditions: 50 mM solution
row,Compound,Oxidation state of the iron immediately after preparation
1,ferrous di-pyruvate,essentially all the iron was in the ferrous oxidation state
2,O=C([O-])CC(O)(CC(=O)[O-])C(=O)[O-].O=C([O-])CC(O)(CC(=O)[O-])C(=O)[O-].[Fe+2].[Fe+2].[Fe+2] [tri-ferrous di-citrate],essentially all the iron was in the ferrous oxidation state

# From US20220304309A1, “IRON COMPLEXES AND USES THEREFOR” (priority 2019, published 2022)
